Data: publication PMC10062709, “Fluorescence based HTS-compatible ligand binding assays for dopamine D3 receptors in baculovirus preparations and live cells” (Frontiers in Molecular Biosciences, 2023)

Chains of the proteins cited; added tags and fusions are not shown.
UniProt P35462, whole entry: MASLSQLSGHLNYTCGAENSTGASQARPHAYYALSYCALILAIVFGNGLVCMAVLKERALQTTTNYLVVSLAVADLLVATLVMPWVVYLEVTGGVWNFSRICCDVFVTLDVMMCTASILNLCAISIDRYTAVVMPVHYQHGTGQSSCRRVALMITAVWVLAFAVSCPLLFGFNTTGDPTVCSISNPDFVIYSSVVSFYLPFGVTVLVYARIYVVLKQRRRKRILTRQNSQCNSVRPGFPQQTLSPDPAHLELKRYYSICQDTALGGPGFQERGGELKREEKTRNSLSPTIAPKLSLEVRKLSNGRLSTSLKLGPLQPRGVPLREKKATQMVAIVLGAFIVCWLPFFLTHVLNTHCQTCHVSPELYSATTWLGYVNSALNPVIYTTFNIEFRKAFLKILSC

Molecular target: T1, human D3 receptor (Homo sapiens, UniProt P35462)
T1 construct: host or cells: Sf9 cells; final budded baculovirus production in Mimic Sf9 insect cells
Experiment: Fluorescence anisotropy competition binding with CELT-419 and D3 receptor budded baculoviruses
Settings: FA competition with 0.5 nM CELT-419

## Br.CCCN(CCC)C1CCc2ccc(O)cc2C1 (stereo not shown) [7-OH-DPAT, 7-hydroxy-DPAT hydrobromide]
  Log(IC50) values change in time: increased in time
